Where two headings read alike, the source gives them in different places.
Legend:
sputum macrophages = test: Sputum macrophage assay (LPS-induced IL-8 release); assay type: cell-based; conditions: Homo sapiens
[1] = system: differentiated U937 cells; test: LPS-induced TNFα release in differentiated U937 cells; assay type: cell-based; conditions: Homo sapiens, U-937, read-out: IC50 Values LPS-induced TNFα release d-U937 cells
Description: U937 cells, human monocytic cell line, were differentiated to macrophage-type cells by incubation with phorbol myristate acetate (PMA; 100 ng/ml) for 48 to 72 hr. Where appropriate, cells were pre-incubated with final concentrations of compound for 2 hr. […] Coli: O111:B4, Sigma) for 4 hr, and the supernatant collected for determination of TNFα concentration by sandwich ELISA (Duo-set, R&D systems). […] THP-1, human monocytic cell line, was also used for this assay. […] Coli: O111:B4, Sigma) for 4 hr, and the supernatant collected for determination of TNFα concentration.

[2] = system: bronchoconstrictor response to ovalbumin challenge (sGaw); test: Ovalbumin challenge/parainfluenza infection model; assay type: in vivo; conditions: nebulised 0.15 mg per day, days 10-15, PIV-3 infected sensitised guinea-pigs
[3] = system: Human rhinovirus RV16 (HRV); test: Rhinovirus-titre assay in MRC5 cells; assay type: cell-based; conditions: rhinovirus replication in MRC5 cells
Description: Human rhinovirus RV16 (HRV) was obtained form American Type Culture Collection (Manassas, Va.). Viral stocks were generated by infecting Hela cells with HRV until 80% of the cells were cytopathic.
MRC5 cells (human lung fibroblast, ATCC) were infected with 1 MOI (multiplicity of infection of 1.0) of HRV and incubated for 1 hr at 33° C. with gentle shaking for absorption. The cells were then washed with PBS, fresh media added and the cells were incubated for a further 96 hr. The supernatant was collected and 10-fold serial dilutions of virus containing supernatant were prepared. All titrations were performed by infecting confluent Hela cell monolayers with serially diluted supernantant (10^−1 to 10^−5) and assessing cytopathetic effect by MTT assay 4 days after infection. The amount of virus required to infect 50% of Hela cells was calculated in each treatment as TCID50 U/mL. Compounds were added 24 and 2 hr before HRV infection and 1 hr after infection when non-infected HRV was washed out.

BEAS2B cells [4] = test: Rhinovirus-induced IL-8 release in BEAS2B cells; assay type: cell-based; conditions: Homo sapiens, BEAS-2B
BEAS2B cells [5] = test: Poly I:C-induced ICAM-1 induction in BEAS2B cells; assay type: cell-based; conditions: Homo sapiens, BEAS-2B; read-out: IC50 poly I:C induced ICAM1 expression in BEAS2B cells
Description: Poly I:C (1 ug/ml) (Invivogen Ltd., San Diego, Calif.) was transfected into BEAS2B cells (human bronchial epithelial cells, ATCC) with Oligofectamine (Invitrogen, Carlsbad, Calif.). Cells were pre-incubated with final concentrations of compound for 2 hrs. The level of ICAM1 expression on the cell surface was determined by cell-based ELISA. Briefly, at 18 hrs after poly I:C transfection, cells were fixed with 4% formaldehyde in PBS. After quenching endogenous peroxidase by adding 0.1% sodium azide and 1% hydrogen peroxide, cells were washed with wash-buffer (0.1% Tween in PBS: PBS-Tween). After blocking the wells with 5% milk in PBS-Tween for 1 hr, the cells were incubated with anti-human ICAM-1 antibody (Cell Signaling Technology, Danvers, Mass.) in 1% BSA PBS overnight at 4° C. Cells were washed with PBS-Tween and incubated with the secondary antibody (HRP-conjugated anti-rabbit IgG, Dako Ltd., Glostrup, Denmark). The ICAM-1 signal was detected by adding substrate and reading the absorbance at 450 nm with a reference wavelength of 655 nm using a spectrophotometer. […] The measured OD 450-655 readings were corrected for cell number by dividing with the OD595 reading in each well. The inhibition of ICAM-1 expression was calculated at each concentration of test compound by comparison with vehicle control.

[6] = system: LPS-induced neutrophils accumulation; test: LPS-induced neutrophils accumulation in mice; assay type: in vivo
[7] = system: Allergen-induced eosinophil accumulation; conditions: guinea pigs; for Inhibition of eosinophils in BALF following allergen challenge; Neutrophil numbers in BAL: aerosol, mean ± SEM
[8] = system: differentiated U937 cells; test: LPS-induced IL-8 release in differentiated U937 cells; assay type: cell-based; conditions: Homo sapiens, U-937
Description: U937 cells, human monocytic cell line, were differentiated to macrophage-type cells by incubation with phorbol myristate acetate (PMA; 100 ng/ml) for 48 to 72 hours. Cells were pre-incubated with final concentrations of compound for 2 hrs. […] Coli: O111:B4, Sigma) for 4 hrs, and the supernatant collected for determination of the IL-8 concentration by sandwich ELISA (Duo-set, R&D systems). The inhibition of IL-8 production was calculated at each concentration of test compound by comparison with vehicle control.

[9] = system: neutrophil and macrophage accumulation into airways; test: Cigarette smoke model; assay type: in vivo, A/J mice; conditions: intra-nasally twice daily for 3 days
Description: A/J mice (males, 5 weeks old) were exposed to cigarette smoke (4% cigarette smoke, diluted with compressed air) for 30 min/day for 11 days using a Tobacco Smoke Inhalation Experiment System for small animals (Model SIS-CS; Sibata Scientific Technology, Tokyo, Japan). Test substances were given intra-nasally (35 μl of solution in 50% DMSO/PBS) and therapeutically twice daily for 3 days after the final cigarette smoke exposure. Twelve hours after the last dosing, animals were anesthetized, the trachea cannulated and bronchoalveolar lavage fluid (BALF) was collected.

BEAS2B cells [10] = test: Rhinovirus-induced ICAM-1 expression in BEAS2B cells; assay type: cell-based; conditions: Homo sapiens, BEAS-2B

`COCC(=O)Nc1cc(Oc2ccc(NC(=O)Nc3cc(C(C)(C)C)nn3-c3ccc(C)cc3)c3ccccc23)ccn1` [Compound (1), N-(4-(4-(3-(3-tert-Butyl-1-p-tolyl-1H-pyrazol-5-yl)ureido)naphthalen-1-yloxy)pyridin-2-yl)-2-methoxyacetamide] was tested, and the IC50 (sputum macrophages) was 5 nM, the IC50 [1] was 2.1 nM and the “initial (1st hr) bronchoconstrictor response to ovalbumin challenge” value [2] was “no effect”. The “subsequent bronchoconstrictor response (2-12 hr post treatment)” value [2] was “markedly inhibited”, the “concentration that decreased the viral titre by 1 log order” value [3] was 5.2 nM and the IC50 (BEAS2B cells [4]) was 0.065 nM. For the same molecule, the IC50 (BEAS2B cells [5]) was 1.7 nM, the “Neutrophil numbers in BAL” value ([6]; 0.02 mg/ml intra tracheal, 2 hr pre-dose, 8 hr after LPS, mean ± SEM) was 15.1 ± 2.1 ×10^5/mL and the “Neutrophil numbers in BAL” value ([6]; 0.02 mg/ml intra tracheal, 12 hr pre-dose, 8 hr after LPS, mean ± SEM) was 20.1 ± 2.9 ×10^5/mL. For the same molecule, the “Neutrophil numbers in BAL” value ([6]; 0.1 mg/ml intra tracheal, 2 hr pre-dose, 8 hr after LPS, mean ± SEM) was 10.4 ± 1.6 ×10^5/mL, the “Neutrophil numbers in BAL” value ([6]; 0.1 mg/ml intra tracheal, 12 hr pre-dose, 8 hr after LPS, mean ± SEM) was 16.7 ± 2.4 ×10^5/mL and the “Neutrophil numbers in BAL” value ([6]; 0.2 mg/ml intra tracheal, 2 hr pre-dose, 8 hr after LPS, mean ± SEM) was 4.6 ± 1.2 ×10^5/mL. The “Neutrophil numbers in BAL” value ([6]; 0.2 mg/ml intra tracheal, 8 hr pre-dose, mean ± SEM (vehicle 16.38 ± 2.53)) was 9.65 ± 1.50 ×10^5/mL, the “Neutrophil numbers in BAL” value ([6]; 0.2 mg/ml intra tracheal, 12 hr pre-dose, 8 hr after LPS, mean ± SEM) was 14.3 ± 2.0 ×10^5/mL and the “neutrophil accumulation into the BALF” value ([6]; treated at 2, 8 or 12 hr before LPS challenge) was “inhibit neutrophil accumulation”. For the same molecule, the “Inhibition of eosinophils in BALF following allergen challenge; Neutrophil numbers in BAL” value ([7]; column head 2 hr pre-dose (text: 8 hr post ovalbumin challenge)) was 12.4 ± 1.7 ×10^5/mL, the “Inhibition of eosinophils in BALF following allergen challenge; Neutrophil numbers in BAL” value ([7]; column head 12 hr pre-dose (text: 24 hr post ovalbumin challenge)) was 21.6 ± 3.9 ×10^5/mL and the “eosinophil accumulation into the BALF” value ([7]; 8 and 24 hr post ovalbumin challenge) was “inhibit eosinophil accumulation”. The IC50 [8] was 7.9 nM, the “numbers of activated macrophages” value [9] was “marked, dose-dependent reduction” and the numbers of neutrophils [9] was “marked, dose-dependent reduction”. The IC50 (BEAS2B cells [10]) was 0.37 nM.
